Earlier results as cited in publication PMC8400941, “Preclinical Toxicity and Safety of MM-129—First-in-Class BTK/PD-L1 Inhibitor as a Potential Candidate against Colon Cancer” (Pharmaceutics, 2021).

How the values were obtained:
[1] = set-up: method as in PMID 24079553; details: cited from earlier work
[2] = system: patients; details: 800 mg twice daily; cited from earlier work

In the case of `CC[C@H](CO)Nc1nc(NCc2ccccc2)c2ncn(C(C)C)c2n1` [seliciclib], the “time within which metabolized” value [1] is listed as no more than 24 h and the “liver function in patients” value [2] is listed as “reversible abnormal liver function”.
